System: APP cleavage through the action of beta and gamma secretase in HEK293 cells overexpressing BACE/swAPP
Experiment: Abeta 1-40 enzyme immunoassay of culture medium from HEK293 cells overexpressing BACE/swAPP (APP cleavage)
Type: cell-based, human
Conditions: 6 days of culture, control without compound 107.1; for Abeta 1-40 in medium (reduction of APP cleavage), dilution of test compound 10^−4: 10^−4 dilution of working concentration of Table 4 (A 1.8, B 2.0, C 0.3, D 0.1 millimolar); for Abeta 1-40 in medium (reduction of APP cleavage), dilution of test compound 10^−3: 10^−3 dilution of working concentration of Table 4 (A 1.8, B 2.0, C 0.3, D 0.1 millimolar)

Structure (SMILES) | Abeta 1-40 in medium (reduction of APP cleavage), dilution of test compound 10^−4 [picograms per milliliter] | Abeta 1-40 in medium (reduction of APP cleavage), dilution of test compound 10^−3 [picograms per milliliter]
O=P(O)(O)C(O)(Cn1ccnc1)P(=O)(O)O [Compound D, zolendronic acid] | 1.9 | 
NCCCC(O)(P(=O)(O)O)P(=O)(O)O [A, alendronate sodium] | 58.4 | 47.9
CC(O)(P(=O)(O)O)P(=O)(O)O [B, etidronatic acid] | 49.6 | 34.4
O=P(O)(O)C(O)(Cc1cccnc1)P(=O)(O)O [Compound C, risedronate sodium] | 64.0 | 59.4
